# Target: plasma kallikrein (Homo sapiens, UniProt P03952)
# The chains behind the UniProt entries cited, without tags or fusion partners. Residues count along the entry.
# UniProt P03952, 20-390 partner limits assumed: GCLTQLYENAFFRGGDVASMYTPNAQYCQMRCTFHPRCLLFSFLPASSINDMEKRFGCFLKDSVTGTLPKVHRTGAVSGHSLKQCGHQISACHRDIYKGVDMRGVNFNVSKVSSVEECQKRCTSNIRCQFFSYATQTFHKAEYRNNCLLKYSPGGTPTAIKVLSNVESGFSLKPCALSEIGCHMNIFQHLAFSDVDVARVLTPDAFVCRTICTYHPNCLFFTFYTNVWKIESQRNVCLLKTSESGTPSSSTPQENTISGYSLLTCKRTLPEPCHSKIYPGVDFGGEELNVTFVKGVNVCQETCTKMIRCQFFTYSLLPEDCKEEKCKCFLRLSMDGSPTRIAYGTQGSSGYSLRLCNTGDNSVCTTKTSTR
# UniProt P03952, 391-638 limits assumed: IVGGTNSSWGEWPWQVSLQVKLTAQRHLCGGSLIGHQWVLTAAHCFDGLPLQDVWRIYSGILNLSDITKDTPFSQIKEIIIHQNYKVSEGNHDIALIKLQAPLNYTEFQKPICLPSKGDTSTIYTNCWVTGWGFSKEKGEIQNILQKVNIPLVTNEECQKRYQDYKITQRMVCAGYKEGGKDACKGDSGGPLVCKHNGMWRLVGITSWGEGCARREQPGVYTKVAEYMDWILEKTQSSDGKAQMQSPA
# Test: Phase 1 study: ex vivo PKa catalytic activity in DXS-stimulated undiluted plasma
# Design: PD measurements were determined in dextran sulfate (DXS) stimulated undiluted plasma using a fluorogenic enzyme assay; from tissue; host or cells: undiluted plasma of healthy adult male volunteers after oral dosing, DXS-stimulated ex vivo
# Procedure: PD measurements were determined in dextran sulfate (DXS) stimulated undiluted plasma using a fluorogenic enzyme assay and capillary based HK cleavage immunoassay.
# The time until appearance of detectable amidolytic enzyme activity in DXS-stimulated plasma (lag time) was calculated from the catalytic activity assay. The detection sensitivity of the rate of catalytic activity in plasma based on using a Spark (Tecan) fluorimeter is a fluorescence increase to reach 1ΔF unit/sec.
structure (smiles),measurement,setting,value
"COCc1nn(Cc2ccc(Cn3ccccc3=O)cc2)cc1C(=O)NCc1nccc(OC)c1F [compound of Formula A, N-[(3-fluoro-4-methoxypyridin-2-yl)methyl]-3-(methoxymethyl)-1-({4-[(2-oxopyridin-1-yl)methyl]phenyl}methyl)pyrazole-4-carboxamide]",inhibition of plasma kallikrein catalytic activity,"160 mg, 300 mg and 600 mg, for a period of time",above 90%
same,average inhibition of plasma kallikrein catalytic activity,"cohort 6 (160 mg), between 45 min and 2 hr post-dose",> 90%
same,average inhibition of plasma kallikrein catalytic activity,"cohort 7 (300 mg), between 20 min and 4 hr post-dose",> 90%
same,inhibition of plasma kallikrein catalytic activity,"cohort 8 (600 mg), between 30 min and 6 hr post-dose",> 90%
same,inhibition of plasma kallikrein catalytic activity,"cohort 8 (600 mg), for 10 hr",> 50%

# — patent publication US20230381162A1, “TREATMENTS OF ANGIOEDEMA” (KALVISTA PHARMACEUTICALS LIMITED, priority 2020, published 2023)
